The values below come from patent US20030104393A1, “Blood assessment of injury” (priority 2000, published 2003).

The data set deals with neurons. The note with it: regular insulin subcutaneously, hypoglycemic for 4 hours.

Turning to regular insulin, the Neuronal injury entry is listed as “severe diffuse neuronal injury”.
